Biological target: EGFR (human) (UniProt P00533)
Settings: mcf-10a

Sequences of proteins named here, by UniProt entry; tags and fusion partners are left off.
UniProt P00533, whole entry, looked up: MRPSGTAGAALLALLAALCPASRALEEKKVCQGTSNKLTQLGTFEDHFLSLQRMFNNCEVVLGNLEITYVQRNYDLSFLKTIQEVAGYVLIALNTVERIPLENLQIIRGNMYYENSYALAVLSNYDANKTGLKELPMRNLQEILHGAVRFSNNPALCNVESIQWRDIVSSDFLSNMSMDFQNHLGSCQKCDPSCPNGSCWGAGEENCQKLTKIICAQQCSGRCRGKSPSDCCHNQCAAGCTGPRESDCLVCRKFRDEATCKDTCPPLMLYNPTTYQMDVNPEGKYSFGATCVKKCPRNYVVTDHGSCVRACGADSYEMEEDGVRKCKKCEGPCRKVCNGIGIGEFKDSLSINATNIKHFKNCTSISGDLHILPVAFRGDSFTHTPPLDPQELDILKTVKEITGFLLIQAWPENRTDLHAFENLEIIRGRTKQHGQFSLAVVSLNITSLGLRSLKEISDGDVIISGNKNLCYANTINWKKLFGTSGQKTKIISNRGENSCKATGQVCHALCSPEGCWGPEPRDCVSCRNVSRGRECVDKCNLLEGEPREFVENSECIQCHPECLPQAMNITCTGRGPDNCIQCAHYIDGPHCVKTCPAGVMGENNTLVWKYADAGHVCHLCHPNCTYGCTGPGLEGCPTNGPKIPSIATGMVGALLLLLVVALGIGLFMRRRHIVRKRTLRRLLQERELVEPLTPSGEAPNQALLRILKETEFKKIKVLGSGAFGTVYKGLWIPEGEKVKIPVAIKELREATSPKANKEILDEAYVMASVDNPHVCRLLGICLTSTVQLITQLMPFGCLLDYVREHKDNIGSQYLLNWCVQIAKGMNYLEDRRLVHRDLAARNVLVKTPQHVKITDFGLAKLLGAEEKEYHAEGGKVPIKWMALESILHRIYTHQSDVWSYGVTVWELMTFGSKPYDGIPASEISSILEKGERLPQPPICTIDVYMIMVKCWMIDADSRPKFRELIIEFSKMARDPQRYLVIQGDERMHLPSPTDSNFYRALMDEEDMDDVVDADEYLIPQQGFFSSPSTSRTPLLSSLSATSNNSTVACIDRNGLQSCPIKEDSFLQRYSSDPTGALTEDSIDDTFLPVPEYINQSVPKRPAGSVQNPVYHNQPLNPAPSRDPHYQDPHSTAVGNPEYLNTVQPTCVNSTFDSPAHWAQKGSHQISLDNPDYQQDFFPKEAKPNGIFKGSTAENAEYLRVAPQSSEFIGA

Row | SMILES | IC50 [nM]
1 | COc1cc2ncnc(Nc3cccc(F)c3)c2cc1OC | 59
2 | COc1cc2ncnc(Nc3cccc(Cl)c3)c2cc1OC | 173
